Measurements as given in PubChem BioAssay AID1259400 (National Center for Advancing Translational Sciences (NCATS), 2018).
Values joined by “and” are separate entries in the source; they are usually repeats but may differ in a detail not shown here. Equal values may be shown once. The entries are a selection whose mix differs from that of the whole data set. Some results for these compounds are left out of this collection, so the calls shown say nothing about other tests. Active and inactive are the calls of the source.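 The calls were made as follows: active = activity change of -60% or lower, but not beyond a set lower limit; inconclusive = change between -60% and -40%, or beyond the set limit; inactive = change above -40%.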

Sequences of proteins named here, by UniProt entry; tags and fusion partners are left off.
UniProt Q9HBX9, whole entry: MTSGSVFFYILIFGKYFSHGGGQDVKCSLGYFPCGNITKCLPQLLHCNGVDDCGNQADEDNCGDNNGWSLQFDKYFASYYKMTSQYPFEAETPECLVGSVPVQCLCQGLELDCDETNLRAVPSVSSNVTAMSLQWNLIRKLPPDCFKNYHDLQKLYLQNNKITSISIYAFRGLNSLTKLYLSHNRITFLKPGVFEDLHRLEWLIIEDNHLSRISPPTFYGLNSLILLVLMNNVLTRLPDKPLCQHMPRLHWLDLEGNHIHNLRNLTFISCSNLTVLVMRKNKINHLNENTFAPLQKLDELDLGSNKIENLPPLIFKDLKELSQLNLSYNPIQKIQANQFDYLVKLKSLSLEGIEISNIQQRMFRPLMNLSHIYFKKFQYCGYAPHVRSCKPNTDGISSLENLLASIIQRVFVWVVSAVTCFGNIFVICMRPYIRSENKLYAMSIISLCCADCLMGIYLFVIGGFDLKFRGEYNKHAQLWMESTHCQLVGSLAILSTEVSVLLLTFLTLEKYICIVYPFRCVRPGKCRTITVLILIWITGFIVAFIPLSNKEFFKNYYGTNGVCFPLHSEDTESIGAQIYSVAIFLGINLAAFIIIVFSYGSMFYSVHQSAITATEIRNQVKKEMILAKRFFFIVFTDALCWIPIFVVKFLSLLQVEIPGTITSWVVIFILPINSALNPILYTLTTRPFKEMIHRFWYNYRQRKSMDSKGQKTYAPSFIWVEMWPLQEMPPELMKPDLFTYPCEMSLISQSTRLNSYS

target: Relaxin receptor 1 (Homo sapiens) (UniProt Q9HBX9); assay: qHTS Assay for Antagonists of the Relaxin Receptor RXFP1; conditions: HEK293-RXFP1, relaxin-stimulated cAMP HTRF, 30 min; at 57.5 µM; hits give low values
Excerpt: The relaxin hormone is involved in the variety of biological functions in normal tissues and diseases. The role of relaxin is well-established in female reproduction and parturition, mammary gland and endometrial development, maintenance of myometrial quiescence during pregnancy. Relaxin signaling through its G protein-coupled receptor (GPCR) RXFP1 results in ECM remodeling through regulation of collagen deposition, cell invasiveness, proliferation and overall tissue homeostasis. […] Recombinant human relaxin (rhRlx) is currently being tested in clinical trials as a protective agent in congestive heart failure, in treating severe preeclampsia, and as an anti-fibrotic agent in various organs. […] Upon relaxin binding RXFP1 activation leads to the activation of adenylate cyclase (AC) via G?s. cAMP will activate PKA, which phosphorylates many signaling proteins. Thus, detection of cAMP increase is an easy and reliable indication of relaxin receptor activation. To screen for antagonists of the relaxin receptor, a HEK293T cell line stably transfected with RXFP1 was used. RXFP1 activation by relaxin in presence of various concentrations of tested compounds was assayed by changes in cAMP levels as detected with a time-resolved fluorescence energy transfer (TR-FRET) cAMP detection kit.
For the primary screening, we used HTRF(R) (Homogenous Time-Resolved Fluorescence) cAMP HiRange assay (Cisbio Bioassays, 62AM6PEJ). Presence of cAMP in the cell lysate disrupts binding between the Cryptate-labeled anti-cAMP and d2-labeled cAMP pair, leading to a decrease in TR-FRET signal. The libraries were screened at two doses (57microM and 11microM), followed by a confirmation of the hits at 7-point serial dilution in the range of final concentrations [57microM - 78nM]. Data were normalized to the controls for basal activity (buffer only) and 100% activity (5 nM porcine relaxin). The EC50 values were determined from concentration-response data modeled with the standard Hill equation. NCGC Assay Protocol Summary: HiHEK (Hawaiian HEK293 LGR7 stably transfected with human RXFP1) were grown in the following media: DMEM+10%FBS+Pen/Strep + Geneticin (1mg/ml). For the assay, the cells were seeded in DMEM+Pen/Strep (with no serum & selective antibiotics) at 2,100 cells/ 3microl/well with MultiDrop Combi dispenser (Thermo Scientific, Logan, UT) onto white tissue culture treated solid bottom1536-well plates (Greiner #789173-F) and allowed to attach/recover overnight at 37 degrees C, 5% CO2. Next, 23nl/well of compound solutions in DMSO were transferred into wells with a pintool (Kalypsis, San Diego, CA). […] EC80 (relaxin at 50pM final concentration) was dispensed to the rest of the plate except columns 1&2 which were used as a negative control (EC0, buffer only), 1microl/well also. The cells were stimulated by relaxin in the presence of compounds for 30 minutes at 37 degrees C, 5% CO2. The detection reagents were prepared individually by dilution in Lysis buffer (supplied with the assay kit) just prior to dispensing. 1microl/well of cAMP-d2 and 1microl/well anti-cAMP-Eu3+-Cryptate antibodies were added simultaneously with BioRAPTR FRDtrade mark Workstation (Beckman Coulter). The plates were incubated at ambient temperature for 30 minutes and, then, FRET signal was read on Envision plate reader (PerkinElmer, Waltham, MA), at wavelengths 340nm (excitation), 615nm & 665nm (emission of donor and acceptor channels respectively).
% is scaled to controls: 0 for no effect and ±100 for the full control effect.

SMILES	activity change, negative = inhibition
O=C(NCC1(N2CCCCC2)CCCCC1)c1cc([N+](=O)[O-])ccc1Cl	inactive: -6.29%
CN1[C@@H]2CC[C@H]1CC(OC(=O)C(O)(c1ccccc1)c1ccccc1)C2 (stereo not given in full)	inactive: 1%
COc1cc(SC)ccc1C(=O)NCC1(N(C)C)CCCCC1	inactive: -1.71%
CCN(CC)CC(C)C(C)OC(=O)C(O)(c1ccccc1)c1ccccc1 (stereo not given)	inactive: -2.54%
CC(C)N1C(=O)CC2(CCN(CCOC(=O)C(O)(c3ccccc3)c3ccccc3)CC2)C1=O	inactive: 3.18%
Cc1ccc(C(=O)NCC2(N3CCCCC3)CCCCC2)cc1	inactive: 1.93%
CN(C)c1ccc(C(=O)NCC2(N(C)C)CCCCC2)cc1	inactive: -1.98%
CN(C)C1CCCC1OC(=O)C(O)(c1ccccc1)c1ccccc1 (stereo not given)	inactive: -5.74%
Cc1ccccc1C(=O)NCC1(N2CCCCC2)CCCCC1	inactive: 7.99%
O=C(NCC1(N2CCCCC2)CCCCC1)c1cc(F)c(F)cc1Cl	inactive: 13%
C=CCN1CCN(CCOC(=O)C(O)(c2ccccc2)c2ccccc2)CC1	inactive: -11.4%
COc1ccc(C(=O)NCC2(N(C)C)CCCCC2)cc1	inactive: 2.86%
O=C(NCC1(N2CCCCC2)CCCCC1)c1cccc(Br)c1	inactive: -7.99%
CCN1CCCC(OC(=O)C2(O)c3ccccc3C=Cc3ccccc32)C1 (stereo not given)	inactive: -14.8%
Cc1cc(C(=O)NCC2(N3CCCCC3)CCCCC2)ccc1[N+](=O)[O-]	inactive: -23%
CN(C)C1(CNC(=O)c2ccc(Br)cc2)CCCCC1	inactive: 6.25%
COc1cc(C(=O)NCC2(N(C)C)CCCCC2)c([N+](=O)[O-])cc1OC	inactive: 11%
COc1ccc(Cl)cc1C(=O)NCC1(N(C)C)CCCCC1	inactive: -9.62%
COc1cccc(C(=O)NCC2(N3CCCCC3)CCCCC2)c1	inactive: 5.4%
COc1ccc(C(=O)NCC2(N(C)C)CCCCC2)cc1Cl	inactive: -9.26%
O=C(NCC1(N2CCCCC2)CCCCC1)c1cccc(Cl)c1	inactive: -15.3%
O=C(OC1CN2CCC1CC2)C(CO)(c1ccccc1)c1ccccc1 (stereo not given)	inactive: -1.65%
CC(C)COc1ccc(C(=O)NCC2(N(C)C)CCCCC2)cc1	inactive: -17.7%
C=C(C)C#CC(O)(C(=O)OC1CCN(C)CC1)c1ccccc1 (stereo not given)	inactive: 13.6%
COc1ccc(Br)c(C(=O)NCC2(N3CCCCC3)CCCCC2)c1	inactive: -2.09%
COc1cc(C(=O)NCC2(N(C)C)CCCCC2)cc(OC)c1OC	inactive: -2.54%
Cc1cccc(C(=O)NCC2(N(C)C)CCCCC2)c1	inactive: 2.76%
O=C(OCCN1CCCC1)C(O)(c1ccccc1)c1ccccc1	inactive: -9.63%
CC(C)Oc1ccc(C(=O)NCC2(N(C)C)CCCCC2)cc1	inactive: -6.33% and inactive: 3.72%
CN(C)c1cccc(C(=O)NCC2(N(C)C)CCCCC2)c1	inactive: -6.84%
